Experimental data reported in ChEMBL document CHEMBL4330111, “Optimization of N-benzyl-5-nitrofuran-2-carboxamide as an antitubercular agent” (Bioorg Med Chem Lett, 2019).

Test: in vitro
Settings: monkey, Vero cells

## O=C(NCc1ccccc1)c1ccc([N+](=O)[O-])o1
  selectivity ratio: 33
